Literature values, collected in US12582646B2, “Method for treating drug or alcohol dependency” (AETHER THERAPEUTICS INC., priority 2019, dated 2026).

Protein sequences, listed by entry. Tags and fused reporters are not part of them.
UniProt P35372, whole entry, species assumed: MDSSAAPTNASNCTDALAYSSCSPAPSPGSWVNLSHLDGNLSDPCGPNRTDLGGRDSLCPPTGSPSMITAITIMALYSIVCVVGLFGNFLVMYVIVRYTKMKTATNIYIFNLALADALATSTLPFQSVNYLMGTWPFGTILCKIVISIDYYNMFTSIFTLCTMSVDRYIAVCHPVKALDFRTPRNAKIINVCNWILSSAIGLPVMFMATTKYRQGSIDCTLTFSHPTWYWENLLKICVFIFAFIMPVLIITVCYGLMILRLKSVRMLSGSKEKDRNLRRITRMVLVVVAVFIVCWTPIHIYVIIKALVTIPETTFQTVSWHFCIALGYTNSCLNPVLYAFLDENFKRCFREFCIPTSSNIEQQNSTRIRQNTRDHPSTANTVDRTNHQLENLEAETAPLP

Experiments:
mu opioid receptor = mu opioid receptor (Homo sapiens, UniProt P35372); details: cited from earlier work
mu opioid receptor (MOR) = mu opioid receptor (MOR) (Homo sapiens, UniProt P35372); details: in vitro; cited from earlier work

SMILES | type of opioid antagonism (mu opioid receptor) | affinity to the mu opioid receptor (MOR) compared with naltrexone (mu opioid receptor (MOR))
Oc1ccc2c3c1O[C@H]1[C@H](O)CC[C@@]4(O)[C@@H](C2)N(CC2CC2)CC[C@]314 [6alpha-naltrexol] | neutral antagonism | –
Oc1ccc2c3c1O[C@H]1[C@H](O)CC[C@@]4(O)[C@@H](C2)N(CC2CC2)CC[C@]314 [6beta-naltrexol] | neutral opioid antagonist | slightly lower affinity
